System: A549 human lung adenocarcinoma epithelial cells
Test: In vitro toxicity assay: cytotoxicity against A549 cells (CellTiter 96 Aqueous One, 72 h)
Details: read-out: IC50 (nM) A549

Compound: CC1=CC(=O)OCC23CCC(C)=CC2OC2CC(OC(=O)C=CC=CC(C(C)O)OCC1)C3(C)C21CO1 (stereo not shown)
- IC50: < 200 nM
